The values below come from US11828750B2, “Material for screening for compound acting on ION channel and use thereof” (PUBLIC UNIVERSITY CORPORATION NAGOYA CITY UNIVERSITY, priority 2016, dated 2023).

The chains behind the UniProt entries cited, without tags or fusion partners.
UniProt Q9NPC2, whole entry, species assumed: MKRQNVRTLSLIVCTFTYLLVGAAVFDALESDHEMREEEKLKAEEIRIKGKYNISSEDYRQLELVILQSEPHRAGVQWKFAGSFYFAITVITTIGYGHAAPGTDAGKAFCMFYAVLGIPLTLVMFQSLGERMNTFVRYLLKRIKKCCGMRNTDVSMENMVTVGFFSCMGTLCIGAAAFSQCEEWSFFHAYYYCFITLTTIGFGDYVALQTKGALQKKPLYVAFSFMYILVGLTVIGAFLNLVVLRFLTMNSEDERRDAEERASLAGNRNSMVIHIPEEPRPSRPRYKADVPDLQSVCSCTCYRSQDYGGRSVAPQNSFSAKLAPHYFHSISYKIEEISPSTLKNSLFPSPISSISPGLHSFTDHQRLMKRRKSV

Test [1] addresses T1, TASK-3 (Homo sapiens, UniProt Q9NPC2). The test is described as follows: Cell death assay in TASK-3 test cells (hTASK-3 transiently expressing Kir 2.1#mutated Nav cells). It is filed as cell-based. Further details: expressed in transfected cells; host or cells: HEK293 Kir 2.1 + mutated Nav cells, transient expression via baculovirus vector. As to the method: With the TREK-1 test cells, the culture medium was replaced with measurement buffer (137 mM NaCl, 5.9 mM KCl, 2.2 mM CaCl2, 1.2 mM MgCl2, 14 mM glucose, 10 mM HEPES (pH 7.4 with NaOH), this also applies in the following) and BaCl2 was added to provide 200 μM Ba ion, a Kir 2.1 inhibitor. This was followed by incubation for approximately 12 hours under conditions of 37° C., atmospheric pressure, and 5% CO2 and monitoring of cell death. […] The measurement of cell death was carried out using the MTT method with reference to a paper by the present inventors (Yamazaki, D., et al., Am J Physiol Cell Physiol 300, C75-86, 2011). […]

Test [2] addresses T1, TASK-3. The conditions noted are these: literature value (Coburn et al. 2012; Zou et al. 2010); read-out: literature / reported IC50 for TASK-3; cited from earlier work.

Consider ML365, for which the “induction of cell death by inhibitor” value on TASK-3 [1] (in the presence of 200 μM Ba ion) was “cell death was observed in a concentration-dependent regime”. The “concentration above which a sharp increase in the induction of cell death occurred” value on TASK-3 [1] (in the presence of Ba ion) was over 100 nM. The IC50 at TASK-3 [2] was 480 nM.
